miR-21 reporter: miR-21 reporter, rising signal | AID 2288 | HeLa miR-21 FLuc reporter, luciferase, 48 h | 340,000 tested, under 10 active | Potency, µM (doses to about 38.3 µM), for inactives: at the top dose reporter change, positive = more light; active = well fitted rising curve with a large enough effect; inconclusive = small, poorly fitted or top-dose-only effect; inactive = no such curve, though single readings can be large or run the other way;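 note: % of control where 0% means no effect; miR-21 action dims this reporter so a rising signal means less miR-21 action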
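Luminescence from a firefly luciferase reporter carrying a miR-21 binding site downstream, stably expressed under a CMV promoter in HeLa cells that make miR-21 endogenously, reports miRNA modulation after 48 h compound exposure up to approximately 40uM final.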
Sfp inh: qHTS Assay for Inhibitors of Bacillus subtilis Sfp phosphopantetheinyl transferase (PPTase) | 4'-phosphopantetheinyl transferase ffp (Bacillus subtilis), Q9F4F7 | AID 1490, 2009 | actives 3.5% (n = 310,000) | Biochemical Sfp PPTase activity, qHTS | Potency, µM, for inactives: max response, negative = inhibition, most hits filed as inhibitors; active = well fitted inhibition curve with a large enough effect; inconclusive = small, poorly fitted or top-dose-only effect, or another doubt; inactive = no such curve, though single readings can be large or run the other way;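 also: the enzyme is Sfp with the accession as filed and its product quenches rhodamine fluorescence; potency is read from the fitted curve at half-maximal effect; 0% = enzyme reaction without inhibitor and -100% = no enzyme wells; top concentration of the series not given in the record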
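With Hepes-Na pH 7.6 buffer containing 10 mM MgCl2, Sfp (15 nM) modified BHQ-2-YbbR (12.5 uM) using rhodamine-CoA (5 uM). Two reads 30 minutes apart at 525/598 nm yielded each well's rate.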
G9a inh: inhibitors of human histone lysine methyltransferase G9a; Potency, µM (series often up to 102 µM), without a hit: top-dose activity, negative = inhibition, actives largely listed as inhibitors; actives 8.8% (n = 350,000); G9a H3K9 monomethylation, AlphaScreen, 2 h; Q96KQ7; AID 504332; further: potency means the concentration at half of the fitted maximal effect; on the % scale 0 is the no-effect control and ±100 the full control effect; nearly all actives have a fitted effect of over 75% in size
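AlphaScreen detection with an anti-monomethyl H3K9 antibody quantified product after a 2 h room-temperature reaction containing 500 nM biotinylated H3K9 peptide, 20 µM SAM and 20 nM enzyme, which had been preincubated 15 min with compound.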
JMJD2E inh: inhibitors of human JMJD2E histone demethylase | Potency, µM (doses to about 57.1 µM), inactives show at the top dose activity change, negative = inhibition, hits mostly inhibitors | JMJD2E catalytic domain, FDH-coupled NADH fluorescence (FDH is formaldehyde dehydrogenase) | B2RXH2 | actives 1.6% (n = 230,000); active means well fitted inhibition curve with a large enough effect, not every such curve was filed as active; inconclusive means small, poorly fitted or top-dose-only effect, or another doubt; inactive means no such curve, though single readings can be large or run the other way;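 further: potency means the concentration at half of the fitted maximal effect; 0% = wells with enzyme and -100% = buffer wells without enzyme; nearly all actives have a fitted effect of over 50% in size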
ALDH1A1 block: blocks purified human ALDH1A1 activity. Potency, µM (titrated, usually from 75.3 µM), inactives show at the top dose activity, negative = inhibition, most hits filed as inhibitors. actives 7.3% (n = 220,000). AID 1030. P00352. Purified ALDH1A1, NADH fluorescence, propionaldehyde substrate; active means well fitted inhibition curve with a large enough effect, not every such curve was filed as active; inconclusive means small, poorly fitted or top-dose-only effect, or another doubt; inactive means no such curve, though single readings can be large or run the other way;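 further: potency means the concentration at half of the fitted maximal effect; plate controls were no enzyme wells and a reference inhibitor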
LMNA splice mod: LMNA splicing modulation; HeLa LMNA splicing GFP/RFP minigene ratio, 48 h; Potency, µM (doses to about 46.1 µM), without a hit: at the highest dose ratio change, negative = inhibition, hits mostly inhibitors; actives 0.01% (n = 200,000); AID 1487; active means well fitted inhibition curve with a large enough effect in the signal ratio, with a control signal flat, not every such curve was filed as active; inconclusive means small, poorly fitted or top-dose-only effect, or effect the other way, or a change in a side signal; the % refers to the signal ratio; further: potency means the concentration at half of the fitted maximal effect; on the % scale 0 is the no-effect control and ±100 the full control effect
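S3 HeLa stable clones carrying a lamin A-EGFP splicing minigene plus DsRed2 were seeded at 600 cells/well in Opti-MEM with 2% FBS, pin-dosed and incubated 48 h at 37°C. Acumen cytometry (488 nm) gave the GFP/RFP total-intensity ratio.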
An asterisk follows results filed as active; u = inconclusive; x = not tested or not shown; [ ] = remark or other dose. An excerpt weighted towards active compounds, which were near 13% of everything screened. Unless noted, the call rests on the fitted dose curve; in most records, active means well fitted curve in the direction sought with a large enough effect; inconclusive means small, poorly fitted or top-dose-only effect, or another doubt; inactive means no such curve, though single readings can be large; an effect the other way counts as inactive or inconclusive.

Start of the data: the first three records, to show the layout:
Screens by letter: A = miR-21 reporter; B = Sfp inh; C = G9a inh; D = JMJD2E inh; E = ALDH1A1 block; F = LMNA splice mod
CCOc1ccc2ccccc2c1/C=N/NC(=O)c1ccncc1
  A = -5%	B = -5%	C = x	D = x	E = x	F = x

CCN(Cc1ccccc1)Cc1c(O)ccc2c(=O)c(-c3ccccc3Cl)c(C(F)(F)F)oc12
  A = -2%	B = x	C = 0%[59 µM]	D = x	E = x	F = x

CCOC(=O)N1CCc2c(sc(NC(=O)CN3CCOCC3)c2C(=O)Nc2ccccc2)C1
  A = 10%	B = -3%	C = u	D = -7%	E = u	F = u

The list itself, from the start:
Screens by letter: A = miR-21 reporter; B = Sfp inh; C = G9a inh; D = JMJD2E inh; E = ALDH1A1 block; F = LMNA splice mod
CCOc1ccc2ccccc2c1/C=N/NC(=O)c1ccncc1
  A = -5%	B = -5%	C = x	D = x	E = x	F = x

CCN(Cc1ccccc1)Cc1c(O)ccc2c(=O)c(-c3ccccc3Cl)c(C(F)(F)F)oc12
  A = -2%	B = x	C = 0%[59 µM]	D = x	E = x	F = x

CCOC(=O)N1CCc2c(sc(NC(=O)CN3CCOCC3)c2C(=O)Nc2ccccc2)C1
  A = 10%	B = -3%	C = u	D = -7%	E = u	F = u

CCOC(=O)N1CCc2c(sc(NC(=O)CN3CCN(C)CC3)c2C(=O)Nc2ccccc2)C1
  A = -4%	B = -19%	C = u	D = -19%	E = 14µM*	F = x

CCOC(=O)c1c(NC(=S)N2CCOCC2)sc2c1CCN(C(=O)OCC)C2
  A = 25%	B = 50µM*	C = -37%[59 µM]	D = -7%	E = x	F = x

O=Cc1ccc(OC(=O)c2cc(Cl)nc3ccccc23)cc1
  A = 2%	B = -6%	C = -20%[59 µM]	D = -13%	E = 14µM*	F = -11%

Cc1ccc(CSc2sc(C(=O)c3ccccc3)c(N)c2C#N)cc1
  A = -5%	B = -7%	C = -33%[59 µM]	D = u	E = u	F = 18%

N#Cc1c(SCc2ccccc2)sc(C(=O)c2ccccc2)c1N
  A = 1%	B = u	C = 11µM*	D = -11%	E = -14%	F = 21%

CCNCc1ccccc1OCc1ccccc1
  A = -3%	B = 22%	C = -5%	D = -8%	E = 3%	F = x

N#CC(Nc1ccccc1)c1ccccc1OCc1ccccc1 (stereo not drawn)
  A = -2%	B = 0%	C = 53%[12.7 µM]	D = -7%	E = 18µM*	F = u

COC(=O)c1ccc(NC(=O)C2CCCO2)cc1 (stereo not drawn)
  A = -26%	B = 5%	C = -13%	D = 4%	E = -1%	F = 12%

COC(=O)c1ccc(N2OC3(C)C=CC2CC3)cc1 (stereo not drawn)
  A = -65%	B = -17%	C = 45µM*	D = -3%	E = u	F = 2%

CCCc1cc(C(=O)Nc2ccc(CC)cc2)no1
  A = -63%	B = -1%	C = 6%	D = x	E = x	F = x

CCN(C(=O)COC(=O)/C=C/c1ccc(S(=O)(=O)N2CCc3ccccc32)cc1)C1CCS(=O)(=O)C1 (stereo not drawn)
  A = -1%	B = 21%	C = u	D = 0%	E = 5µM*	F = x

COc1cc(/C=C/C(=O)OCC(=O)NC2CC2)cc(S(=O)(=O)N2CCc3ccccc32)c1OC
  A = -6%	B = 5%	C = 56µM*	D = -9%	E = u	F = x

COc1cc(/C=C/C(=O)OCC(=O)Nc2ccc(NC(C)=O)cc2)cc(S(=O)(=O)N2CCc3ccccc32)c1OC
  A = -10%	B = 9%	C = -50%	D = -12%	E = 4%	F = -24%[46 µM]

Cc1ccc(S(=O)(=O)Nc2ccc(-c3cn4ccc(C)cc4n3)cc2)cc1
  A = -7%	B = -1%	C = 45µM*	D = u	E = -3%	F = u

CCCCC(Br)C(=O)Nc1ccc(S(=O)(=O)Nc2cc(C)nc(C)n2)cc1 (stereo not drawn)
  A = 6%	B = -17%	C = 50µM*	D = x	E = x	F = x

Cc1ccc(S(=O)(=O)Nc2ccc(S(=O)(=O)Nc3cc(C)nc(C)n3)cc2)cc1
  A = 2%	B = -17%	C = 10µM*	D = u	E = 4µM*	F = u

CCOC(=O)C(NC(C)=O)(Nc1ccc(S(=O)(=O)Nc2cc(C)nc(C)n2)cc1)C(F)(F)F (stereo not drawn)
  A = -2%	B = 21%	C = -23%	D = 9%	E = 14µM*	F = 6%

CN1CCN(NC(=O)c2ccc(S(=O)(=O)N3CC4(C)CC3CC(C)(C)C4)cc2)CC1 (stereo not drawn)
  A = 1%	B = -7%	C = -1%[12.7 µM]	D = -6%	E = x	F = x

Nn1c(SCC(=O)Nc2ccc(N3CCOCC3)cc2)nnc1-c1ccccc1F
  A = x	B = x	C = -13%[2.33 µM]	D = x	E = x	F = x

Cc1cc(NS(=O)(=O)c2ccc(NC(=O)/C=C/c3ccco3)cc2)nc(C)n1
  A = 2%	B = -27%	C = 50µM*	D = -12%	E = x	F = x

Cc1cc(NS(=O)(=O)c2ccc(NS(=O)(=O)c3ccc(CC(C)C)cc3)cc2)nc(C)n1
  A = -1%	B = -3%	C = u	D = u	E = 32µM*	F = x

Cc1cc(NS(=O)(=O)c2ccc(NC(=O)c3ccco3)cc2)nc(C)n1
  A = -1%	B = 20%	C = u	D = -1%	E = u	F = -1%

COc1ccc(Nc2c([N+](=O)[O-])ccc3c2=NC2(CCCCC2)N=3)cc1
  A = -10%	B = -3%	C = 10µM*	D = u	E = 7.1µM*	F = -6%[46 µM]

Bioassay records from PubChem.
